Measured values reported in patent US20240217966A1, “PHARMACEUTICAL COMPOSITION CONTAINING GLP-1 RECEPTOR AGONIST HAVING FUSED RING” (Shionogi & Co., Ltd., priority 2021, published 2024).

Amino acid sequences for entries named in this document (tags omitted). Residues count along the entry.
UniProt P43220, 24-463 limits assumed: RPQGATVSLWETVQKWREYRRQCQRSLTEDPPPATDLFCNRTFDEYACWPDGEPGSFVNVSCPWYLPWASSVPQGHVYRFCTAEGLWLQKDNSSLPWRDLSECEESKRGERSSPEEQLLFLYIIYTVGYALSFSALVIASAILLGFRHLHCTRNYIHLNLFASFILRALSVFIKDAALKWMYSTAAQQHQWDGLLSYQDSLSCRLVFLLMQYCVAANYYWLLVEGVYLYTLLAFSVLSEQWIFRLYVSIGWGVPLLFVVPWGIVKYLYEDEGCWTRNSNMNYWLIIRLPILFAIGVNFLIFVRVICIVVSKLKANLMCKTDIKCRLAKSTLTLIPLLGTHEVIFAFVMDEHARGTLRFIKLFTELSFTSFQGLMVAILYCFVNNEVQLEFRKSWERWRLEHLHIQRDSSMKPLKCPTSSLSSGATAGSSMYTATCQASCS

Molecular target: Human GLP-1 receptor (Homo sapiens, UniProt P43220)
Experiment: Measurement of GLP-1 receptor agonist activity (cAMP assay)
Format: cell-based
Conditions: hGLP-1R/CHO-K1 cells

`O=C(O)c1cc(C2CC2)c2nc(CN3CCc4cc(C(F)(F)F)c(OCc5ccc(Cl)cc5F)cc4C3)n(C[C@@H]3CCO3)c2c1` was tested, and the EC50 (cAMP increase, 37° C. 1 hour) was 89 nM and the “Emax(%)” value (cAMP, 100% = human GLP-1 (7-36) at 2 nM, 0% = DMSO only) was 119%.
